# scFv variants of Ab-14 (light chain) against a SARS-CoV-2 spike peptide

Source: Li et al. 2023 (doi:10.1038/s41467-023-39022-2), MIT Lincoln Laboratory and A-Alpha Bio; data file from the FLAb repository.

Antigen: PDVDLGDISGINAS, a 14-residue peptide of the SARS-CoV-2 spike HR2 region.

Each scFv is VH, the linker GGGGSGGGGSGGGGS, VL, as in the parent Ab-14, and differs from it in the CDRs of the light chain only.
VH: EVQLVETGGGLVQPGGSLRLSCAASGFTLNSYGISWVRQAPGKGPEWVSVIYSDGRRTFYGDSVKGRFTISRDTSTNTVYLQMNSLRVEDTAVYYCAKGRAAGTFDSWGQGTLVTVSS
VL: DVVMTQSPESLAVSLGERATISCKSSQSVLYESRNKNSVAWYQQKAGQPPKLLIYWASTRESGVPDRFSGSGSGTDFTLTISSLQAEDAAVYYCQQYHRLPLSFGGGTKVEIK

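These sequences belong to a second round, designed from the earlier measurements on random variants of the parent. Several design methods are mixed in this list. Affinity was read by AlphaSeq, a pooled yeast mating assay with surface-displayed partners. The frequency of each diploid, read from paired DNA barcodes, reflects how well the two displayed proteins bind. Read counts were normalised to the haploid input and turned into Kd by a linear fit to BCL2-family pairs of known affinity, for each replicate. The assay was run in six technical replicates.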

Each variant is given by its three light chain CDRs, as the data file delimits them; those of the parent are KSSQSVLYESRNKNSVA, WASTRES, QQYHRLPLS. The read-out is the apparent dissociation constant on a log10 scale (nM): the lower, the stronger. A mean of the replicates is given; it leaves out those without a signal. An entry "nd" has no value in the source: the pair was not observed among the diploids in any replicate. This suggests poor binding but is not conclusive. The parent sequence was in this pool as ten entries: three were never detected, three once, and four in most replicates, with averages from 0.34 to 2.37.

With KISGSHLYESRNWNAVA, EASQRES, QQYHRLPLS the result was 0.46 (6 of 6 replicates; controls 0 of 18).
With IISGMMLMESRNKNSVA, NAETREY, QHYDRLPLS the result was 1.92 (6 of 6 replicates; controls 1 of 18).
With KLSLSMSYSEEGTRHIA, NGSNRCH, QQYHRLPLI the result was 0.57 (6 of 6 replicates; controls 0 of 18).
With KIMSHAERGNGIAGQIA, DAHERIT, QQYQHLPLS the result was 0.48 (6 of 6 replicates; controls 2 of 18).
With KVSQSVLYESGNKNSVA, NASTRMS, QQYHRLPLS the result was -0.08 (6 of 6 replicates; controls 0 of 18).
With KISQSWLYESRNKNSVA, GASTREN, QQYHRLPLS the result was -0.03 (6 of 6 replicates; controls 2 of 18).
With KSSISYLYESRNWNSVA, EASTREQ, QQYHRLPLS the result was 0.05 (6 of 6 replicates; controls 0 of 18).
With KSSQSLLDESRNKNSVA, WASTRES, QQYHRLPRI the result was 1.02 (6 of 6 replicates; controls 0 of 18).
With HFSPSVLYESRNKNNVA, NASTRES, QQYHRLPLS the result was 0.26 (6 of 6 replicates; controls 2 of 18).
With KQSQGVLYESRNKNSVA, GASTRES, QQYHRLPLD the result was 1.32 (6 of 6 replicates; controls 0 of 18).
With KSSQSVLNESLNDNSCA, WASTRVE, NQYVRLPLS the result was 1.88 (2 of 6 replicates; controls 0 of 18).
With KSSISYLYESRNKNSVA, HASTRES, QQYHRLPLS the result was 0.91 (6 of 6 replicates; controls 1 of 18).
With HISYSMAHLSKNKNSVA, NQQTRET, QQYHRLPLS the result was 1.11 (6 of 6 replicates; controls 0 of 18).
With KSKQSVLYESANKYSVA, GASTRES, EQYHRLPLS the result was 1.22 (6 of 6 replicates; controls 5 of 18).
With MLSQMWAIGQKVKNSVA, QASMRFN, QQYDRLPLI the result was 2.44 (6 of 6 replicates; controls 0 of 18).
With KLSQSVLYESRNKNSVA, EASQRES, QDYHRLPLS the result was 0.27 (6 of 6 replicates; controls 0 of 18).
With QINVNRLMNYLLNNAIA, GKTLRVD, QQYARLPLS the result was 2.52 (3 of 6 replicates; controls 1 of 18).
With NFSYALFGMDAKKKSIA, ENEVTEY, QQYAKLPLQ the result was 0.85 (6 of 6 replicates; controls 2 of 18).
With KSSQSVYYESRNKNSVA, WASTRPS, QQYHRLPPS the result was nd (0 of 6 replicates; controls 2 of 18).
With KLWAYFQGLESKMQNVA, DGIYRST, QQYDRLPLS the result was 1.00 (6 of 6 replicates; controls 2 of 18).
With KSYQSVEYESRNKKSVA, WGSTRSS, QQYHRLPLS the result was nd (0 of 6 replicates; controls 1 of 18).
With TLSDLTYMESRNVNSVA, DLVKRES, QQYHRLPLS the result was 0.33 (6 of 6 replicates; controls 1 of 18).
With KLGSATRFESSNKASIA, DNSTREQ, QQYHRLPLS the result was 0.39 (6 of 6 replicates; controls 0 of 18).
With KMSQSVLGEQRNKNSVA, DASTRES, QQYHRLPLS the result was -0.28 (6 of 6 replicates; controls 0 of 18).
With NISYLQGVSTNSVNNVA, QASMRAP, QYYQRLPLC the result was 0.45 (6 of 6 replicates; controls 0 of 18).
With KLSQVTEYEMHNRDNVA, DLTTRGA, QDYHRLPLS the result was 0.35 (6 of 6 replicates; controls 2 of 18).
With KSSQSVLYESRNKGSVA, WANTRES, QQYHRLPLS the result was 2.07 (1 of 6 replicates; controls 0 of 18).
With KVSQSWLMESRNKNSVA, EASTRYS, QQYHRLPLS the result was 0.02 (6 of 6 replicates; controls 0 of 18).
With KLSQSVEYESRLKNSVA, EASTREY, QQYHRLPLA the result was 0.38 (6 of 6 replicates; controls 2 of 18).
With KLSISHQVESINKSNVA, ELVTRES, QQYDRLPLS the result was 1.84 (2 of 6 replicates; controls 0 of 18).
With KLSQSVQYESRNKNSVA, NASTRLS, QQYHRLPLS the result was -0.18 (6 of 6 replicates; controls 2 of 18).
With KSSSSVLYEDENKNSVA, NASTRES, QQYHRLPLS the result was 0.91 (6 of 6 replicates; controls 0 of 18).
With KSSYSVLYESFNKNSVA, WASTRES, QQYHRLPLS the result was 2.44 (4 of 6 replicates; controls 0 of 18).
With MLTWGDDHTTGHQNAIA, HAHERAT, QQYALLPLS the result was 1.24 (6 of 6 replicates; controls 5 of 18).
With KSSISYLYASRMKNSVA, EASTLES, QQYHRLPLS the result was 0.65 (6 of 6 replicates; controls 2 of 18).
With MLSMVTEGMRRKHNSVA, DNSTRES, QQYDRLPLS the result was 2.79 (5 of 6 replicates; controls 0 of 18).

Excerpt, the final 2 entries:

CDR-L1,CDR-L2,CDR-L3,"mean, log10 nM",detected,empty controls
KSSISYLYASRMKNSVA,EASTLES,QQYHRLPLS,0.65,6/6,2/18
MLSMVTEGMRRKHNSVA,DNSTRES,QQYDRLPLS,2.79,5/6,0/18

Values of this round are not directly comparable with the first-round values of the same sequences. Nonspecific signal, from three strains lacking the peptide, appeared in 4% of pairings of all light chain designs, centred on 2.64 (5% of these signals below 1.59); values are not corrected for it. For each scFv, signals with the empty controls are counted beside the result. The authors' rule: three or more of the six replicates give a measured affinity, fewer mean a poor binder.